# AlphaSeq binding of Ab-14 light chain variants to a spike HR2 peptide

From the AlphaSeq antibody data of Li et al. 2023 (doi:10.1038/s41467-023-39022-2), copy in the FLAb collection.

Target: peptide PDVDLGDISGINAS, taken from heptad repeat 2 (HR2) of SARS-CoV-2 spike.

Parent scFv Ab-14: VH joined to VL by three GGGGS repeats. Changes lie in the light chain CDRs alone.
VH: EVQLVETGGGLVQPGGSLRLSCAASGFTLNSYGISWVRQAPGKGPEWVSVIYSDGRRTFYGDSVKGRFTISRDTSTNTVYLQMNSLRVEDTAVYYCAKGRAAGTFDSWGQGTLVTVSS
VL: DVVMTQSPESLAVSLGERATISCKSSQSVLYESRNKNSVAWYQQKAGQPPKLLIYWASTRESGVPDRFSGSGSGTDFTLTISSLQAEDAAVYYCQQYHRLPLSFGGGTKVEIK

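Phage display of a naive human antibody library on the peptide gave the parent. Designed CDR sequences, proposed from the first random library and measured here. Their group label is 14L_Rand (Rand: our label for a block that the file lists under HC and that is probably the random mutants of the ten best first-round binders). AlphaSeq pools MATa yeast showing the antibodies with MATalpha yeast showing the peptide. After mating in shaken culture at 30 °C for 16 h, diploids were selected and their barcode pairs sequenced. Each replicate has its own calibration line, from reference interactions of the BCL2 family. There are six technical replicates.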

Changes read parent residue, position, new residue, counted from the first residue of the VL shown.
Values are log10 of the apparent Kd in nM; lower means stronger binding.
A mean of the replicates is given; it leaves out those without a signal.
An entry "ND" has no value in the source: the pair was not observed among the diploids in that replicate. This suggests poor binding but is not conclusive.
Empty control strains, which show no peptide, gave a signal in 4% of pairings with all light chain designs; the median was 2.64 and 95% of these signals were weaker than 1.59. No background was subtracted. Also given: how often the same scFv was detected with the empty control strains, with their mean in brackets.
Values of this round are not directly comparable with the first-round values of the same sequences.
Of ten entries with the parent sequence, four were seen in most replicates (averages 0.34 to 2.37), three in one and three in none, so single entries are noisy.
The authors' rule: three or more of the six replicates give a measured affinity, fewer mean a poor binder.

| changes | log10 Kd (nM) by replicate | mean log10 Kd (nM) | signal with controls |
|---|---|---|---|
| Q27I V29Y K36E W56E T59F S62Q | 0.34 0.11 -0.04 -0.06 0.18 0.01 | 0.09 | 0 of 18 |
| S25F N35T W56N H98F P101A | 0.88 0.47 0.29 0.47 0.48 0.66 | 0.54 | 1 of 18 (2.48) |
| Q27I V29Y Y31E W56E | 0.40 0.24 0.10 0.30 0.44 0.03 | 0.25 | 1 of 18 (2.25) |
| K24N S26L Q27P W56N H98M | 0.21 0.01 -0.10 -0.47 -0.41 0.09 | -0.11 | 0 of 18 |
| S25L S26R V29T Q95R R99K L100T | ND ND ND 2.34 3.06 ND | 2.70 | 0 of 18 |
| S26L W56H S62D Q95P | ND ND ND ND ND ND | ND | 0 of 18 |
| K24H S26L Q27P Y31F W56N Q95L P101V S103C | ND 2.53 1.90 1.80 1.60 ND | 1.96 | 2 of 18 (2.77) |
| S25D Q27I V29Y V39T W56E Q95H S103V | ND ND ND ND ND ND | ND | 1 of 18 (2.59) |
| S25L S26R V29T N37S R60N L102G | ND ND ND ND ND ND | ND | 1 of 18 (2.94) |
| S26G S28G S38N W56G R99T | -0.29 -0.39 -0.48 -0.58 -0.37 -0.22 | -0.39 | 1 of 18 (3.29) |
| S26G S28G S33H K36W W56G | 0.22 0.04 -0.20 -0.20 -0.24 -0.03 | -0.07 | 1 of 18 (2.27) |
| K24H Q27P S28A L30R W56N S62E Q95D Q96D | 2.00 1.58 1.66 1.87 1.51 1.24 | 1.64 | 1 of 18 (2.58) |
| S25F S28Q N35T W56N T59W L100H | 2.07 1.69 1.35 1.31 1.94 1.53 | 1.65 | 1 of 18 (5.20) |
| S25F E32C N35T W56N L100I | 0.68 1.09 0.84 0.64 0.61 0.77 | 0.77 | 0 of 18 |
| L30K Y31F W56D | 0.66 0.59 0.42 0.84 0.35 0.37 | 0.54 | 0 of 18 |
| V29W W56G A57S | -0.03 -0.14 -0.26 -0.41 -0.31 -0.06 | -0.20 | 0 of 18 |
| V29W S38L W56G S62N | 1.79 1.37 1.08 0.65 1.03 1.46 | 1.23 | 0 of 18 |
| S25Q S33W W56D | 0.41 0.25 -0.08 -0.18 -0.01 0.28 | 0.11 | 2 of 18 (2.36) |
| S26G S28G N37Y W56G Q96S | 1.83 1.72 1.30 1.61 1.52 2.40 | 1.73 | 0 of 18 |
| S25L S26R V29T L100K | ND ND ND ND ND ND | ND | 0 of 18 |
| V29W A40T W56G L102V | ND ND 2.15 2.64 ND ND | 2.39 | 0 of 18 |
| S25V N35T W56N Y97M | ND ND ND ND 3.48 ND | 3.48 | 1 of 18 (2.62) |
| K24H Q27P R34Y W56N | 0.51 0.01 -0.12 -0.95 0.16 -0.38 | -0.13 | 0 of 18 |
| K24H Q27P Y31A A40F W56N | 2.35 1.14 1.10 1.50 1.32 1.76 | 1.53 | 0 of 18 |
| S26L W56H S62D Q96L | 1.14 1.77 2.06 2.49 1.50 1.57 | 1.76 | 1 of 18 (1.91) |
| S26L S38P W56H S58K S62D H98A | 1.64 1.09 1.46 1.00 1.88 1.21 | 1.38 | 1 of 18 (2.31) |
| S25F N35T S38G W56N | -0.01 0.01 -0.41 -0.43 -0.21 -0.02 | -0.18 | 2 of 18 (3.35) |
| K24T S25Q W56D | 0.52 1.01 0.46 0.67 0.43 0.84 | 0.66 | 0 of 18 |
| Q27T V29Y W56E A57P | ND ND ND ND ND ND | ND | 0 of 18 |
| S26G S28G W56G R60C E61Y P101V | ND ND ND ND ND ND | ND | 0 of 18 |
| Q27I V29Y W56E L100H L102T | 1.32 1.13 0.94 0.81 0.76 0.93 | 0.98 | 0 of 18 |
| S25F S26I L30M S33K N35T S38H W56N | 1.49 1.46 1.18 1.92 1.26 1.75 | 1.51 | 0 of 18 |
| Y31F W56D R60K L100W | ND ND ND ND ND 3.56 | 3.56 | 2 of 18 (3.11) |
| V29W W56G H98F L102I | 0.96 1.11 0.89 1.12 0.26 1.27 | 0.93 | 0 of 18 |